ChEMBL document CHEMBL4421730, “Synthetic compounds and derivatives as modulators of smoking or nicotine ingestion and lung cancer” (2013)

Biological target: T1, Cytochrome P450 2A6 (Homo sapiens, UniProt P11509)
T1 sequence (P11509 whole entry): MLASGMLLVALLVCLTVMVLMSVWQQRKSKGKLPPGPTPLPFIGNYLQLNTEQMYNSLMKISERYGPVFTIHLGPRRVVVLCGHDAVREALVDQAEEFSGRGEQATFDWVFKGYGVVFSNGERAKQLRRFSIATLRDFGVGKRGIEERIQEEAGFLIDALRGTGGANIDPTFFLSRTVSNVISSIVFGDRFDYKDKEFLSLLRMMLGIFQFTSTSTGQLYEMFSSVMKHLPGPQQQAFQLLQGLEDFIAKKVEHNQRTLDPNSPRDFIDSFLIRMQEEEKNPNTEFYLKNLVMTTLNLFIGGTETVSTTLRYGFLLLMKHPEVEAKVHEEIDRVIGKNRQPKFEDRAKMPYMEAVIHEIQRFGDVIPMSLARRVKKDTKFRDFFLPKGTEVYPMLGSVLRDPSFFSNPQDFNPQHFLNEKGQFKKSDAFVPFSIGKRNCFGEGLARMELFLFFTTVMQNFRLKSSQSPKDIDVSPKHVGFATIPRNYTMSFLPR
Assay: Inhibition of CYP2A6 in human liver microsomes assessed as reduction in CYP2A6-mediated nicotine oxidase activity using [3H]-nicotine in presence of NADPH-generating system incubated for 20 mins by TLC/radiometric assay

SMILES: N[C@@H]1C[C@H]1c1ccccc1.N[C@H]1C[C@@H]1c1ccccc1 [TRANYLCYPROMINE]
- IC50: 80 nM
